Results taken from PubChem BioAssay AID720704 (The Scripps Research Institute Molecular Screening Center, 2013).
The list shows a part of the results, in another mix than the full data. Some results for these compounds are left out of this collection, so the calls shown say nothing about other tests. The source made the active and inactive calls. Rule as the data show it: active = inhibition above about 11%; inactive = the rest.

The chains behind the UniProt entries cited, without tags or fusion partners.
UniProt Q01970, whole entry: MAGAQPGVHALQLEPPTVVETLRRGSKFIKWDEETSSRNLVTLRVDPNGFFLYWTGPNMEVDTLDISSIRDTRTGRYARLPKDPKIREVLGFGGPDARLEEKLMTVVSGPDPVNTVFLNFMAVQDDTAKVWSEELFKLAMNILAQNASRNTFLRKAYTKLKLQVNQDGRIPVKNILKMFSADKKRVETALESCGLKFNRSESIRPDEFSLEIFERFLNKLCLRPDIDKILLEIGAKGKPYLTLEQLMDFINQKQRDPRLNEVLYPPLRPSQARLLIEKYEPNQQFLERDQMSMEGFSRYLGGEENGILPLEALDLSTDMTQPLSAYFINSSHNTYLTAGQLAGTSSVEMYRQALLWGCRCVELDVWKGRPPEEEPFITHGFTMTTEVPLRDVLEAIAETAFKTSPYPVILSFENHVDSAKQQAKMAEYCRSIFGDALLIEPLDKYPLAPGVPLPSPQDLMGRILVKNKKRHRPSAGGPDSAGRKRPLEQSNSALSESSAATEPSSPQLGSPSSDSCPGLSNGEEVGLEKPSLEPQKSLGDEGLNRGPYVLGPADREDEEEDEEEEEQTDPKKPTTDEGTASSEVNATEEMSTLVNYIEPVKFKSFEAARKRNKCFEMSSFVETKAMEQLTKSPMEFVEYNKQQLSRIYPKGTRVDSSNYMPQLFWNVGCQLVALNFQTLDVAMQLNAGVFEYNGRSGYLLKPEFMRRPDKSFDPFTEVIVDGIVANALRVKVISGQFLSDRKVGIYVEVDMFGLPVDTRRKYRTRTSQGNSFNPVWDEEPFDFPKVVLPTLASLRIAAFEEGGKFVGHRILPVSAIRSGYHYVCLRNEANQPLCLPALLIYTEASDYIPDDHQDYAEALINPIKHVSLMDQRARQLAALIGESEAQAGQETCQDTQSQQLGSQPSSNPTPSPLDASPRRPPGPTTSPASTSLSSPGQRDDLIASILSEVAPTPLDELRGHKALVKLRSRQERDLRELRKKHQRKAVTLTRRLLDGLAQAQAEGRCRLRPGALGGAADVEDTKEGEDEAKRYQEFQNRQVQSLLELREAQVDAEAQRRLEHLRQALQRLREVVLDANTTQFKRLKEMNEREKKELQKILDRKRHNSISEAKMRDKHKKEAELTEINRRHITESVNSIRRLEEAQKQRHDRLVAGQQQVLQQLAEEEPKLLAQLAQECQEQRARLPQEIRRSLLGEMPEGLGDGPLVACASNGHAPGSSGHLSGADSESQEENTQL

target: 1-phosphatidylinositol 4,5-bisphosphate phosphodiesterase beta-3 (Homo sapiens) (UniProt Q01970); assay: human PLC-beta3 inhibitors, primary screen, biochemical, fluorescence (AID 720704); details: Purified PLC-beta3, fluorogenic substrate, at 12.2 µM, stronger effect = higher value;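 also: 0% = median of compound wells on plate and 100% = full blocker control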

For `CN(C)c1ccc(C(=O)NCC2(N(C)C)CCCCC2)cc1`, which inhibition is on record?
Its inhibition is inactive: -7.15%.

With `CN(C)C1CCCC1OC(=O)C(O)(c1ccccc1)c1ccccc1` (stereo unspecified) as the compound, how does the inhibition read?
Its inhibition is inactive: 0.68%.

Which inhibition does the source give for `Cc1ccccc1C(=O)NCC1(N2CCCCC2)CCCCC1` here?
Its inhibition is inactive: 3.11%.

With `COc1ccc(C(=O)NCC2(N(C)C)CCCCC2)cc1` as the compound, how does the inhibition read?
Its inhibition is inactive: -2.69%.

How did the inhibition turn out when `O=C(NCC1(N2CCCCC2)CCCCC1)c1cccc(Br)c1` was run?
Its inhibition is inactive: -3.53%.

How did the inhibition turn out when `CCN1CCCC(OC(=O)C2(O)c3ccccc3C=Cc3ccccc32)C1` (stereo unspecified) was run?
Its inhibition is inactive: 4.74%.

`Cc1cc(C(=O)NCC2(N3CCCCC3)CCCCC2)ccc1[N+](=O)[O-]` was tested. Which inhibition did it give?
The inhibition was inactive: -7.26%.

With `O=C(NCC1(N2CCCCC2)CCCCC1)c1cc(F)c(F)cc1Cl` as the compound, how does the inhibition read?
Its inhibition is inactive: -2.69%.

With `C=CCN1CCN(CCOC(=O)C(O)(c2ccccc2)c2ccccc2)CC1` as the compound, how does the inhibition read?
The inhibition was inactive: 2.36%.

`CN1[C@@H]2CC[C@H]1CC(OC(=O)C(O)(c1ccccc1)c1ccccc1)C2` (stereo partly specified) was tested. Which inhibition did it give?
The inhibition was inactive: -1.83%.

Which inhibition does the source give for `O=C(NCC1(N2CCCCC2)CCCCC1)c1cc([N+](=O)[O-])ccc1Cl` here?
The inhibition was inactive: -1.9%.

Which inhibition does the source give for `Cc1ccc(C(=O)NCC2(N3CCCCC3)CCCCC2)cc1` here?
Its inhibition is inactive: -5.34%.

How did the inhibition turn out when `COc1cc(SC)ccc1C(=O)NCC1(N(C)C)CCCCC1` was run?
Its inhibition is inactive: -4.5%.

With `CCN(CC)CC(C)C(C)OC(=O)C(O)(c1ccccc1)c1ccccc1` (stereo unspecified) as the compound, how does the inhibition read?
The inhibition was inactive: 5.01%.

Which inhibition does the source give for `CC(C)N1C(=O)CC2(CCN(CCOC(=O)C(O)(c3ccccc3)c3ccccc3)CC2)C1=O` here?
Its inhibition is inactive: 1.21%.

`O=C(OC1CN2CCC1CC2)C(CO)(c1ccccc1)c1ccccc1` (stereo unspecified) was tested. Which inhibition did it give?
Its inhibition is inactive: 2.39%.

Which inhibition does the source give for `O=C(OCCN1CCCC1)C(O)(c1ccccc1)c1ccccc1` here?
Its inhibition is inactive: -4.21%.

With `CC(C)Oc1ccc(C(=O)NCC2(N(C)C)CCCCC2)cc1` as the compound, how does the inhibition read?
Its inhibition is inactive: -8.12%.

Which inhibition does the source give for `CN(C)c1cccc(C(=O)NCC2(N(C)C)CCCCC2)c1` here?
The inhibition was inactive: -89%.

Which inhibition does the source give for `C=C(C)C#CC(O)(C(=O)OC1CCN(C)CC1)c1ccccc1` (stereo unspecified) here?
The inhibition was inactive: -3.01%.

`COc1ccc(Br)c(C(=O)NCC2(N3CCCCC3)CCCCC2)c1` was tested. Which inhibition did it give?
Its inhibition is inactive: -9.44%.

Which inhibition does the source give for `COc1cc(C(=O)NCC2(N(C)C)CCCCC2)c([N+](=O)[O-])cc1OC` here?
Its inhibition is inactive: -6.18%.

`CN(C)C1(CNC(=O)c2ccc(Br)cc2)CCCCC1` was tested. Which inhibition did it give?
Its inhibition is inactive: -6.82%.

`O=C(NCC1(N2CCCCC2)CCCCC1)c1cccc(Cl)c1` was tested. Which inhibition did it give?
Its inhibition is inactive: -7.74%.

How did the inhibition turn out when `COc1ccc(Cl)cc1C(=O)NCC1(N(C)C)CCCCC1` was run?
The inhibition was inactive: 1.45%.

How did the inhibition turn out when `COc1cccc(C(=O)NCC2(N3CCCCC3)CCCCC2)c1` was run?
The inhibition was inactive: 1.67%.
